Measurements from patent US11286278B2, “DPEP-1 binding agents and methods of use” (Arch Biopartners, Inc., priority 2018, dated 2022).

Experiment: Circular dichroism spectroscopy of LSALT peptide and analogs
Assay type: physicochemical
Design: Inducible Helical Structure (50% TFE-benign): unit not given here
Experimental: The physical and chemical properties of protein therapeutics are critical factors that influence the ease of manufacturing, development and clinical use. The LSALT peptide was evaluated in terms of its solubility, aggregation state and stability using a variety of biophysical methods.
In circular dichroism spectroscopy the ellipticity value at 222 nm is a measure of a-helical content. 50% trifluoroethanol is a hydrophobic solvent and induces α-helical structure if the structure can be induced. All of the peptides tested can be induced to adopt α-helical structure. The peptides are random coils in benign conditions (non-denaturing). The buffer conditions were aqueous phosphate, pH 7.0.

Substance: Bio-LSALTPSPSWLKYKAL [Biotin-Native]
- inducible α-helical structure (in words) (50% trifluoroethanol): definite advantage for inducible α-helical structure
- Inducible Helical Structure (50% TFE-benign) (222 nm): 43,134
- [θ] (222 nm) 50% TFE (222 nm, 50% TFE): −90148
- % Inducible Helical Structure (Inducible/50% TFE) (222 nm, 50% TFE is considered 100% folded): 47.8%
- [θ] (222 nm) Benign (No TFE) (222 nm, benign buffer (100 mM KCl, 50 mM Na2HPO4/NaH2PO4, pH 7.0)): −47013
